# Reference: patent publication US11767303B2, “Compounds and methods for inhibiting viral replication and methods of treating and preventing flaviviral infections” (priority 2020, dated 2023)
# Test system: A549 cells
# Test: WST-8 cell proliferation cytotoxicity assay
# Format: cell-based, human
# Conditions: Table 4, preliminary SAR
structure (smiles),measurement,value
CN1CCC(Oc2ccc(Cl)cc2C(=O)Nc2ccc3c(c2)S(=O)(=O)C=C3)CC1,CC50,8.4 µM
